Results: PubChem BioAssay AID1662 (Broad Institute, 2009)
The list shows a part of the results, in another mix than the full data. Activity calls are given as the source filed them.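 The calls were made as follows: active = mean replicate score, as percent of positive control median, at least 50; inconclusive = mean below 50 but one replicate at or above 50; inactive = mean and every replicate below 50.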

Assay: kanamycin survival loss of SKKanGAS strain – BacTiter-Glo luminescence, streptokinase expression inhibitor project, primary screen (AID 1662);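 also: strain carries kanamycin resistance gene driven by streptokinase promoter and grows in 40 µg/ml kanamycin; loss of luminescence reflects streptokinase promoter inhibition or plain growth inhibition; 0% = median of DMSO wells and 100% = positive control at its reference dose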
Settings: S. pyogenes SKKanGAS, kanamycin growth, 6 h, at 7.5 µM, active compounds read high

Compound	inhibition
CCCCOc1ccc(C(=O)NCC2(N3CCCCC3)CCCCC2)cc1OC	inactive: 2.54%
Cc1cc(SC(NC(=O)c2ccccc2)C(Cl)(Cl)Cl)nc(C(C)C)n1 (configuration not stated)	inactive: 3.53%
CCOC(=O)Nc1ccc([As](=O)(O)O)c(O)c1	inactive: 3.75%
C/C=C1/CC(C)C(C)(O)C(=O)OCC2CCN3CCC(OC1=O)C23 (configuration not stated)	inactive: 4.93%
O=P(Nc1ccccn1)(c1cccc2ccccc12)c1cccc2ccccc12	inactive: -1.28%
Cc1cc(SC(NC=O)C(Cl)(Cl)Cl)ncn1 (configuration not stated)	inactive: -15.1%
O=[N+]([O-])c1ccc(Nc2ccc(Oc3ccc([N+](=O)[O-])cc3[N+](=O)[O-])cc2)c([N+](=O)[O-])c1	inactive: 13.6%
CCOC(=O)Nc1cccc([As](=O)(O)O)c1	inactive: -5.31%
O=C(COc1ccccc1)OC1CN2CCC1CC2 (configuration not stated)	inactive: -1.57%
O=C(Nc1ccncc1[N+](=O)[O-])c1ccc([N+](=O)[O-])cc1[N+](=O)[O-]	inactive: 9.5%
COP1(=S)c2c(C)nn(CCC#N)c2N=C(c2ccc(F)cc2)N1C (configuration not stated)	inactive: -2.95%
CCC(C)N(CC(C)C)C(=S)SC(NC(C)=O)C(Cl)(Cl)Cl (configuration not stated)	inactive: 32.7%
O=C(OC1CN2CCC1CC2)c1cccc([N+](=O)[O-])c1 (configuration not stated)	inactive: -4.68%
CCOC(=O)c1ccc(NC(=O)C(C)(CCl)SC)cc1 (configuration not stated)	inactive: -3.55%
COc1ccc2nc(NP(=O)(c3ccccc3)c3ccccc3)sc2c1	inactive: 1.93%
COc1cc(I)ccc1[As](=O)(O)O	inactive: -2.85%
Cc1c2c(nc3ccccc13)SC(C(Cl)Cl)C2 (configuration not stated)	inactive: 4.77%
O=C(OC1CN2CCC1CC2)C12CC3CC(CC(C3)C1)C2 (configuration not stated)	inactive: -8.65%
Cc1cc(=O)[nH]c(N[N+](=O)[O-])n1	inactive: -1.49%
COc1ccc(N/C(=N/P(=O)(N2CCOCC2)N2CCOCC2)N2CCOCC2)cc1	inactive: 7.16%
Cc1ccc(OP(=O)(Nc2ccc([N+](=O)[O-])cn2)Oc2ccc(C)cc2)cc1	inactive: -0.177%
Cc1ccc2nc3c(c(C)c2c1)CC(C(Cl)Cl)S3 (configuration not stated)	inactive: -14%
O=[As](O)(c1ccc(O)cc1)c1ccccc1O	inactive: 0.231%
C[As](=O)(O)c1cccc(C(=O)O)c1	inactive: 2.62%
CCN(CC)C(=S)SC(NC=O)C(Cl)(Cl)Cl (configuration not stated)	inactive: -2.39%
CC(C)NC(=O)NP(=O)(Oc1ccccc1)Oc1ccccc1	inactive: -0.348%
O=[N+]([O-])c1cc([N+](=O)[O-])c(-c2ccn[nH]2)s1	inactive: 2.25%
